Source: patent US20100183613A1, “METHODS OF USING MEVALONATE DECARBOXYLASE (MVD) ANTAGONISTS” (NOVARTIS AG, priority 2008, published 2010)

Test system: human PBMCs
Conditions: human PBMC infected with virus, 48 hours, Celltiter Glo

Compound: CC[C@H](C)C(=O)O[C@H]1C[C@@H](C)C=C2C=C[C@H](C)[C@H](CC[C@@H]3C[C@@H](O)CC(=O)O3)[C@H]21 [Lovastatin]
- cytotoxicity: not observed
